According to patent US20210380929A1, “METHODS, APPARATUS AND KITS FOR BACTERIAL CELL LYSIS” (TECHNISCHE UNIVERSITÄT WIEN, priority 2018, published 2021):

What follows are molecules tested on qPCR amplification of a diagnostic fragment of the Enterococcus spp. 23S rRNA gene (DNA plasmid standard). Conditions: IL concentration 762 mM; 10^4 DNA target copies.

SMILES	inhibitory effect on the qPCR amplification reaction
CCCCCCn1cc[n+](C)c1.[Cl-] [[C6mim]Cl, 1-Hexyl-3-methylimidazolium chloride]	substantially interfered with the reaction
CCCCOP(=O)([O-])OCCCC.C[N+](C)(C)CCO [[Cho]DBP, Choline dibutylphosphate]	completely inhibited the amplification
CCCCCC(=O)[O-].C[N+](C)(C)CCO [[Cho]Hex, Choline hexanoate]	completely inhibited the amplification
